Laboratory results reported in paper PMC5207538, “Substrates and Inhibitors of SAMHD1” (PLoS ONE, 2017).

Substrate: Cc1cn([C@H]2C[C@H](O)[C@@H](COP(=O)(O)OP(=O)(O)OP(=O)(O)O)O2)c(=O)[nH]c1=O
Assay: purified protein
Conditions: Mg2+ ([…] MgCl2); GTP activator catalytic site

B1: SAMHD1 (Homo sapiens) (protein)
chain: MQRADSEQPSKRPRCDDSPRTPSNTPSAEADWSPGLELHPDYKTWGPEQVCSFLRRGGFEEPVLLKNIRENEITGALLPCLDESRFENLGVSSLGERKKLLSYIQRLVQIHVDTMKVINDPIHGHIELHPLLVRIIDTPQFQRLRYIKQLGGGYYVFPGASHNRFEHSLGVGYLAGCLVHALGEKQPELQISERDVLCVQIAGLCHDLGHGPFSHMFDGRFIPLARPEVKWTHEQGSVMMFEHLINSNGIKPVMEQYGLIPEEDICFIKEQIVGPLESPVEDSLWPYKGRPENKSFLYEIVSNKRNGIDVDKWDYFARDCHHLGIQNNFDYKRFIKFARVCEVDNELRICARDKEVGNLYDMFHTRNSLHRRAYQHKVGNIIDTMITDAFLKADDYIEITGAGGKKYRISTAIDDMEAYTKLTDNIFLEILYSTDPKLKDAREILKQIEYRNLFKYVGETQPTGQIKIKREDYESLPKEVASAKPKVLLDVKLKAEDFIVDVINMDYGMQEKNPIDHVSFYCKTAPNRAIRITKNQVSQLLPEKFAEQLIRVYCKKVDRKSLYAARQYFVQWCADRNFTKPQDGDVIAPLITPQKKEWNDSTSVQNPTRLREASKSRVQLFKDDPM
  Km: 845 ± 229 µM
